Reference: BindingDB's records for doi:10.1016/s0006-2952(97)00631-x (Roche Bioscience, 1998)

By UniProt entry, the sequences of proteins in these tests, tags left out.
UniProt Q1HL33, whole entry: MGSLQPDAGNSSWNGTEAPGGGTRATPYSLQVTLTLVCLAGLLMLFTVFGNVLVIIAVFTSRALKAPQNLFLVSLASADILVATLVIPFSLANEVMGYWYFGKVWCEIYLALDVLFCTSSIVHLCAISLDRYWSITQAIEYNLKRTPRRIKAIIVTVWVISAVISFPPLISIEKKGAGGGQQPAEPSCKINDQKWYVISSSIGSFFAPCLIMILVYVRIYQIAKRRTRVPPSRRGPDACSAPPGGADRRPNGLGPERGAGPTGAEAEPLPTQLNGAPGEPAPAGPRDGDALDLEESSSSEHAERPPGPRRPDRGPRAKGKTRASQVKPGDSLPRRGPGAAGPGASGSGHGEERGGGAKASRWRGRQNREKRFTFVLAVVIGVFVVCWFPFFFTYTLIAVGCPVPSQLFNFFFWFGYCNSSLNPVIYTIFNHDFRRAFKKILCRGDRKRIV

Target: Alpha-2A adrenergic receptor (Mus musculus, UniProt Q1HL33)

Ki [µM]	SMILES
0.389	CNCC(O)c1ccc(O)c(O)c1 (stereo not drawn) [EPINEPHRINE]
0.0363	COC(=O)[C@@H]1[C@H]2C[C@H]3c4[nH]c5ccccc5c4CCN3C[C@@H]2CC[C@@H]1O [yohimbic acid methyl ester]

SMILES	Ki [µM]
Brc1c(NC2=NCCN2)ccc2nccnc12 [UK 14,304]	0.0437
